In assay [1] the test system is rats subjected to temporary MCAo. In words: Infarct areas and volumes after temporary MCAo. The assay is classed as in vivo, Sprague-Dawley rats. The source says: The present invention arose from a series of laboratory investigations wherein the effect of a DHA-Albumin complex was compared to treatment of albumin alone after an induced temporary MCAo. Animals were randomly assigned to 1 of 5 treatment groups: (1) Albumin, 1.25 g/kg (n=10); (2) DHA-Albumin, 1.25 g/kg (n=7); (3) Albumin, 0.63 g/kg (n=7); (4) DHA-Albumin, 0.63 g/kg (n=7); and (5) Normal saline (n=8).
After preparing the DHA-Albumin complex, Male Sprague-Dawley rats (260-357 g) were anesthetized with halothane and nitrous oxide and subjected to up to 120 minutes of temporary MCAo by retrograde insertion of an intraluminal nylon suture coated with poly-L-lysine through the external carotid artery into the internal carotid artery and middle cerebral artery. Temperature probes were inserted in the rectum and the left temporalis muscle. […] Mean arterial blood pressure (MABP), plasma glucose, blood gases and hematocrit were continuously measured during the procedure.
The drug (DHA-albumin, 1.25 or 0.63 g/kg; human albumin, 25% solution, 1.25 or 0.63 g/kg; or normal saline) was administered intravenously at the time of reperfusion, i.e., 2 hours from the onset of MCAo. […] Brains were then perfusion-fixed with a mixture of 40% formaldehyde, glacial acetic acid and methanol (FAM, 1:1:8 by volume), and infarct volumes and brain swelling were determined at 9 coronal levels throughout the brain. […]

Assay [2] has the same test system. In words: Brain swelling after temporary MCAo. The assay is classed as in vivo, Sprague-Dawley rats. The method, then:
After preparing the DHA-Albumin complex, Male Sprague-Dawley rats (260-357 g) were anesthetized with halothane and nitrous oxide and subjected to up to 120 minutes of temporary MCAo by retrograde insertion of an intraluminal nylon suture coated with poly-L-lysine through the external carotid artery into the internal carotid artery and middle cerebral artery. Temperature probes were inserted in the rectum and the left temporalis muscle. Heating lamps were used to maintain rectal and temporalis muscle temperatures at 36 to 37 degrees Centigrade. In all rats, polyethylene catheters were introduced into the right femoral artery and vein for blood pressure recording, blood sampling, and drug infusion. Mean arterial blood pressure (MABP), plasma glucose, blood gases and hematocrit were continuously measured during the procedure.
The drug (DHA-albumin, 1.25 or 0.63 g/kg; human albumin, 25% solution, 1.25 or 0.63 g/kg; or normal saline) was administered intravenously at the time of reperfusion, i.e., 2 hours from the onset of MCAo. The animals were allowed to survive for three days. Brains were then perfusion-fixed with a mixture of 40% formaldehyde, glacial acetic acid and methanol (FAM, 1:1:8 by volume), and infarct volumes and brain swelling were determined at 9 coronal levels throughout the brain. Repeated-measures ANOVA with post-hoc Bonferroni tests were used to assess infarct areas. […]

Assay [3] concerns rats subjected to fluid percussion injury. Kind of assay: Fluid percussion head injury (FPI) model, Evans blue extravasation (BBB permeability / brain edema). As to conditions: 24 h post-FPI, continuous infusion by intraperitoneal mini-osmotic pump (DHA-Halb 0.63 g/kg), vs TBI/saline; FIG. 6. The assay is classed as in vivo, Wilstar rats. The method, then: For use in the fluid percussion head injury model, DHA was physically complexed to human albumin by the following method. The complex was prepared under sterile conditions in a laminar-flow hood. DHA (200 mg cis-4,7,10,13,16,19-Docosahexaenoic acid, sodium salt; #D-8768, Sigma Co., St. Louis, Mo.) was dissolved in 500 μl ethanol, and then injected into a 100-ml sealed bottle of Buminate 25% (human serum albumin, USP, 25% solution; Baxter Healthcare Corporation, Westlake Village, Calif.). The solution was thoroughly mixed at room temperature in a G24 environmental incubator shaker (New Brunswick Scientific Co., Edison, N.J.) at 500 rpm for 30 min. Quantitative analysis by mass spectrometry and gas-liquid chromatography indicated 0.999 μg DHA/μl solution. The solution was stored at 4° C. protected from light and oxygen (stored under nitrogen). […]
Also, the blood brain barrier (BBB) permeability was assessed by measuring Evans blue dye extravasation into the brain, similar to the method described in R. Noor et al., “Hyperthermia masks the neuroprotective effects of tissue plasminogen activator,” Stroke, vol. […]
The results are shown in FIG. 6, where the bars represent mean values±SEM, and the number of rats in each study is from 8 to 11. The Evans Blue ratio was calculated based on (ng EB/g brain tissue)/(μg EB/g plasma). […]

Take “Albumin: human serum albumin, USP, 25% solution, given alone as comparator”: in assay [1] (1.25 g/kg i.v. at reperfusion, FIG. 2), the cortical infarct neuroprotection result is “high-grade neuroprotection”. In assay [1] (Albumin alone, dose not given, FIG. 3), the “integrated striatal infarct volume / subcortical infarct reduction” value is on record as “not able to achieve this effect”. The brain swelling in assay [2] (0.63 g/kg i.v. at reperfusion after 2 h MCAo) amounted to 9.4 ± 7.0%. Besides, in assay [2] (1.25 g/kg i.v. at reperfusion after 2 h MCAo), the brain swelling is 9.2 ± 3.9%. Also, in assay [3], the “reduction in brain edema (Evans blue extravasation), left (contralateral) hemisphere” value amounted to 48% and the “reduction in brain edema (Evans blue extravasation), right (damaged side) hemisphere” value is reported as 28%.

The record behind these values is patent US20060276373A1, “Neuroprotective complex for treatment of cerebral ischemia and injury” (priority 2004, published 2006).
